“And” between values parts separate entries of the source, which are not always exact repeats. Identical values can stand only once.
Key:
[1] = target: T1, catalase HPII, overproduced and purified (Escherichia coli, UniProt P21179 1-753); assay: dynamic light scattering; mixture of wild-type Hfq (~0.5 mg/ml) and HPII (~0.5 mg/ml) after incubation at 40°C, measured at 25°C; settings: both partners purified
T1 construct: catalase HPII of Escherichia coli, gene cloned from the E. coli chromosome; also called pure catalase HPII; purified HPII; source: over-expression system, gene cloned from E. coli chromosome
T1 sequence (looked up): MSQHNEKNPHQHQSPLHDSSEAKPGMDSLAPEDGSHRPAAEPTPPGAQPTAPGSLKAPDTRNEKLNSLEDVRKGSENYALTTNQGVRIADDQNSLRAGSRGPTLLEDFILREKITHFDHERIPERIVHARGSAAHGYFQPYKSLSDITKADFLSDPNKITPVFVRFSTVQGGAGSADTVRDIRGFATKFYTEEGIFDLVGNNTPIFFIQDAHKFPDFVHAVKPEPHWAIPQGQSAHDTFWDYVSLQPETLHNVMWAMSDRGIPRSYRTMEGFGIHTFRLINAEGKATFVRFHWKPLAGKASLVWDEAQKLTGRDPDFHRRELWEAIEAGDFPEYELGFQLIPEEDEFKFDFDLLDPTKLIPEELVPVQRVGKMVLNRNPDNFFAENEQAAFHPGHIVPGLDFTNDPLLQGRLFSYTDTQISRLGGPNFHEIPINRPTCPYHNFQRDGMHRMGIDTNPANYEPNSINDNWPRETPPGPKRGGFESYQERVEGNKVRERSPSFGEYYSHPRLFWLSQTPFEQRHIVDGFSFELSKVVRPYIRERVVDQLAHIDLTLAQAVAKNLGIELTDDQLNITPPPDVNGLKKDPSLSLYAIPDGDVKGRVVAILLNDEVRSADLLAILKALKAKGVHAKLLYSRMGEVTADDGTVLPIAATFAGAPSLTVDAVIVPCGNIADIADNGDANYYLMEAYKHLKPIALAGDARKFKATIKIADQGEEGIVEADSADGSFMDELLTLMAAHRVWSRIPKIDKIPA

[2] = target: T2, catalase HPII (endogenous, Escherichia coli) (Escherichia coli (endogenous in E. coli), UniProt P21179 1-753); assay: crystal structure; complex of endogenous Hfq and HPII isolated together from E. coli lysate (nickel-affinity, gel filtration); hanging drop, 20°C, 0.1 M Tris-HCl pH 9.0, 0.18 M NaCl, 10% PEG 4000; 2.85 Å, space group I222; settings: both partners purified
T2 construct: catalase HPII of Escherichia coli, product of the katE gene, endogenous protein, printed molecular weight 84 kDa; residues 27-753 and one heme resolved in the map; Homotetramer, one heme per subunit; also called HPII tetramer; source: endogenous, E. coli overexpressing PomAB mutants
T2 sequence (looked up): T1 sequence (looked up)

B1: wild-type Hfq, overproduced and purified (natural protein, Escherichia coli, UniProt P0A6X3 1-102, looked up)
chain: MAKGQSLQDPFLNALRRERVPVSIYLVNGIKLQGQIESFDQFVILLKNTVSQMVYKHAISTVVPSRPVSHHSNNAGGGTSSNYHHGSSAQNTSAQQDSEETE
notes: Hfq of Escherichia coli, gene cloned from the E. coli chromosome; wild type; Hexameric rings that form dimers of hexamers in 150 mM NaCl, 20 mM Tris-HCl pH 8.0; also called pure Hfq; purified Hfq; source: over-expression system, gene cloned from E. coli chromosome
For B1, the “stoichiometry N” value [1] was 1 Hfq hexamers per HPII tetramer and 2 Hfq hexamers per HPII tetramer.

B2: Hfq, post-transcriptional regulator (endogenous, Escherichia coli) (natural protein, Escherichia coli (endogenous in E. coli), UniProt P0A6X3 1-102, looked up)
chain: B1 chain
notes: Hfq of Escherichia coli, endogenous protein, printed molecular weight 11.2 kDa; residues 5-69 resolved in the map, about 40 C-terminal residues not seen; Homohexameric ring; Endogenous, untagged; also called Hfq hexamer; Hfq ring; source: endogenous, E. coli overexpressing PomAB mutants
B2 was tested, and the “stoichiometry N” value [2] was 1 Hfq hexamer per HPII subunit.
